How the values were obtained:
Assay in all cases: selective drug sensitivity score (sDSS, relative to normal bone marrow) (sDSS (score)); higher = more potent and effective on the cell line relative to normal bone marrow cells
Settings in all cases: 72 h
ALL-SIL = tested on: ALL-SIL
LC4-1 = tested on: LC4-1
COG-LL-319h = tested on: COG-LL-319h
RCH-ACV = tested on: RCH-ACV
MN-60 = tested on: MN-60
KOPN-8 = tested on: KOPN-8
RPMI-8402 = tested on: RPMI-8402
KASUMI-10 = tested on: KASUMI-10
CCRF-CEM = tested on: CCRF-CEM
DND-41 = tested on: DND-41
HAL-01 = tested on: HAL-01
JURKAT = tested on: JURKAT
COG-LL-317 = tested on: COG-LL-317
TMD5 = tested on: TMD5
SEM cells = tested on: SEM cells
KARPAS-45 = tested on: KARPAS-45
MHH-CALL-4 = tested on: MHH-CALL-4
MOLT-4 = tested on: MOLT-4
697 = tested on: 697
COG-LL-394h = tested on: COG-LL-394h
380 = tested on: 380
COG-LL-332h = tested on: COG-LL-332h
NALM-6 = tested on: NALM-6
MHH-CALL-3 = tested on: MHH-CALL-3
NALL-1 = tested on: NALL-1
NALM-16 = tested on: NALM-16
COG-LL-402h = tested on: COG-LL-402h
KASUMI-2 = tested on: KASUMI-2
HPB-ALL = tested on: HPB-ALL
REH = tested on: REH
TANOUE = tested on: TANOUE
PF-382 = tested on: PF-382
P12-ICHIKAWA = tested on: P12-ICHIKAWA
PEER = tested on: PEER
MOLT-16 = tested on: MOLT-16
MHH-CALL-2 = tested on: MHH-CALL-2
CCRF-HSB2 = tested on: CCRF-HSB2
ALL-PO = tested on: ALL-PO
P30-OHKUBO = tested on: P30-OHKUBO
COG-LL-355h = tested on: COG-LL-355h
KASUMI-9 = tested on: KASUMI-9
MOLT-14 = tested on: MOLT-14
SUP-B15 = tested on: SUP-B15
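Further: ALL cell lines in 384-well plates, five doses spanning 10,000-fold, each plate scaled between vehicle and 100 µmol/L benzalkonium chloride controls, sDSS an adapted area-under-curve metric.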

NCc1ccc(OCCCc2sc(-c3ccc4c(c3)/C(=N/Nc3nc5ccccc5s3)CCC4)nc2C(=O)O)cc1 [WEHI-539] (top concentration 2500 nM)
selective drug sensitivity score (ALL-SIL): 10.2 | selective drug sensitivity score (LC4-1): -0.02 | selective drug sensitivity score (COG-LL-319h): 5.28 | selective drug sensitivity score (RCH-ACV): -0.02 | selective drug sensitivity score (MN-60): 0.98 | selective drug sensitivity score (KOPN-8): -0.02 | selective drug sensitivity score (RPMI-8402): 4.58 | selective drug sensitivity score (KASUMI-10): 3.58 | selective drug sensitivity score (CCRF-CEM): 8.38 | selective drug sensitivity score (DND-41): 6.88 | selective drug sensitivity score (HAL-01): -0.02 | selective drug sensitivity score (JURKAT): 2.38 | selective drug sensitivity score (COG-LL-317): 11 | selective drug sensitivity score (TMD5): -0.02 | selective drug sensitivity score (SEM cells): -0.02 | selective drug sensitivity score (KARPAS-45): 11.6 | selective drug sensitivity score (MHH-CALL-4): 2.18 | selective drug sensitivity score (MOLT-4): 8.38 | selective drug sensitivity score 697: -0.02 | selective drug sensitivity score (COG-LL-394h): 2.78 | selective drug sensitivity score 380: -0.02 | selective drug sensitivity score (COG-LL-332h): 3.98 | selective drug sensitivity score (NALM-6): 1.28 | selective drug sensitivity score (MHH-CALL-3): -0.02 | selective drug sensitivity score (NALL-1): -0.02 | selective drug sensitivity score (NALM-16): -0.02 | selective drug sensitivity score (COG-LL-402h): 6.78 | selective drug sensitivity score (KASUMI-2): -0.02 | selective drug sensitivity score (HPB-ALL): 12.3 | selective drug sensitivity score (REH): 2.18 | selective drug sensitivity score (TANOUE): 0.38 | selective drug sensitivity score (PF-382): 2.68 | selective drug sensitivity score (P12-ICHIKAWA): 10.1 | selective drug sensitivity score (PEER): 9.48 | selective drug sensitivity score (MOLT-16): -0.02 | selective drug sensitivity score (MHH-CALL-2): 0.08 | selective drug sensitivity score (CCRF-HSB2): 4.48 | selective drug sensitivity score (ALL-PO): -0.02 | selective drug sensitivity score (P30-OHKUBO): -0.02 | selective drug sensitivity score (COG-LL-355h): 7.58 | selective drug sensitivity score (KASUMI-9): -0.02 | selective drug sensitivity score (MOLT-14): 2.48 | selective drug sensitivity score (SUP-B15): 3.78
